Target: D(2) dopamine receptor (Rattus norvegicus, UniProt P61169)

Protein sequences, listed by entry. Tags and fused reporters are not part of them.
UniProt P61169, whole entry: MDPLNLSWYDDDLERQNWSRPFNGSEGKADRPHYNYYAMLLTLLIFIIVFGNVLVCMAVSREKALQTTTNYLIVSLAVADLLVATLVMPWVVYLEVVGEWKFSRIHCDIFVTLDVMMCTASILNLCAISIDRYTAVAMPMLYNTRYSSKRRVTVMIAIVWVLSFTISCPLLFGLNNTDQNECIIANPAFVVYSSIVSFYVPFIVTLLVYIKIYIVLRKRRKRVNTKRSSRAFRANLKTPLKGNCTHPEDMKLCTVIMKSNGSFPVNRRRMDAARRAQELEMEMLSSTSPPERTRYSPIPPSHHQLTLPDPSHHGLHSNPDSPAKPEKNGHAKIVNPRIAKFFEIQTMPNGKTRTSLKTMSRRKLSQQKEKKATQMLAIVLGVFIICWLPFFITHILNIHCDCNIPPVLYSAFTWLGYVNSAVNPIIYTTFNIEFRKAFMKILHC

Compound: CN1CCN2c3ccccc3Cc3ccccc3[C@H]2C1 [MIANSERIN (+)]
- Ki: 3.2 µM
